Measurements reported in paper PMC11602988 (The Journal of Biological Chemistry, 2024).
Substitutions are numbered along the chain they refer to. Where two headings read alike, the source gives them in different places.

Key:
OCT1 WT = biological target: T1, OCT1 WT (Homo sapiens, UniProt O15245); assay: Uptake screening (transport ratio over empty vector), HEK293 cells overexpressing OCT1 WT; assay type: cell-based; set-up: expressed in transfected cells;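 further: intracellular substrate levels quantified by HPLC–tandem mass spectrometry after uptake in HBSS+ buffer at 37 °C, stable Flp-In HEK293 lines, fold change versus empty vector–transfected cells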
T1 sequence (O15245 1-554): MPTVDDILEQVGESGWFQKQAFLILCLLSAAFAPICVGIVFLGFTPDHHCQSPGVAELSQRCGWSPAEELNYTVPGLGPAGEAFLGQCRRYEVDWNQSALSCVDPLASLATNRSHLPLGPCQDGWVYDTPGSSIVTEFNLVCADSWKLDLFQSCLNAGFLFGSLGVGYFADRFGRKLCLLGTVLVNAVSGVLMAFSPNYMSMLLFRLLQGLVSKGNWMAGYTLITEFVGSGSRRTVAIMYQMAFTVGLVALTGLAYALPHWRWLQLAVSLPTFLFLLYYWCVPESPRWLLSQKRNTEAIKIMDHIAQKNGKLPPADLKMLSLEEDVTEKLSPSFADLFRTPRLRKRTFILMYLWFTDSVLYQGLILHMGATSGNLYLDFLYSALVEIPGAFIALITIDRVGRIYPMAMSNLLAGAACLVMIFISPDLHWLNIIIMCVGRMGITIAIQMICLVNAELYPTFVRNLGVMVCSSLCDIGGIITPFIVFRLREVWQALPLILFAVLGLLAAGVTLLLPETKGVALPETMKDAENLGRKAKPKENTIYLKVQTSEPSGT

OCT1 Phe244Ala variant [1] = biological target: T2, OCT1 Phe244Ala variant (Homo sapiens, UniProt O15245, F244A); assay: Uptake screening (transport ratio over empty vector), HEK293 cells overexpressing OCT1 Phe244Ala variant; assay type: cell-based; set-up: expressed in transfected cells;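 further: stably transfected HEK293 cells, intracellular substrate quantified by HPLC-tandem mass spectrometry in cell lysates, uptake in HBSS+ buffer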
T2 sequence (O15245 1-554 F244A): T1 sequence (O15245 1-554) with F244A

OCT1 Phe244Ala variant [2] = biological target: T2, OCT1 Phe244Ala variant; conditions: cited from earlier work
[3] = uptake ratio over empty vector, HEK293 cells overexpressing OCT1 WT
[4] = Phe244Ala uptake relative to WT
[5] = uptake ratio over empty vector, HEK293 cells overexpressing OCT1 Phe244Ala

Row | Mean_transport_ratio_WT (OCT1 WT; [3]) | relative_Phe244Ala_uptake_in% (OCT1 Phe244Ala variant [1]; [4]) [%] | Mean_transport_ratio_Phe244Ala (OCT1 Phe244Ala variant [1]; [5]) | relative_Phe244Ala_uptake_in% (OCT1 Phe244Ala variant [1]; Phe244Ala uptake relative to OCT1 WT) [%] | Structure (SMILES) | Consequence of the Phe244Ala substitution on transport (OCT1 Phe244Ala variant [2]) | Mean_transport_ratio_WT (OCT1 WT) | Mean_transport_ratio_Phe244Ala (OCT1 Phe244Ala variant [1]) | relative_Phe244Ala_uptake_in% (OCT1 Phe244Ala variant [1]) [%]
1 | 6.361 | 28.562 | 2.531 |  | CCCC(=O)Nc1ccc(OCC(O)CNC(C)C)c(C(C)=O)c1 (stereo not shown) [Acebutolol] |  |  |  | 
2 | 3.628 | 20.746 | 1.545 |  | COc1ccc(CCNC[C@H](O)c2ccc(O)cc2)cc1OC [Denopamine] |  |  |  | 
3 |  |  |  |  | CC(Cc1ccc(O)cc1)NCC(O)c1cc(O)cc(O)c1 (stereo not shown) [Fenoterol] | increased transport rates in a stereoselective manner | 14.554 | 31.027 | 221.547
4 | 7.81 |  | 10.466 | 139.004 | CC(C)(C)NCC(O)c1cc(O)cc(O)c1 (stereo not shown) [Terbutaline] |  |  |  | 
